Biological target: human neutrophil cathepsin G (Homo sapiens, UniProt P08311)
Assay: Enzyme-catalyzed hydrolysis assay, cathepsin G (chromogenic substrate Suc-Ala-Ala-Pro-Phe-pNa)
Conditions: read-out: IC50 (μM) CatG; 70 nM enzyme, 5 mM substrate, pH 7.4, 37° C., 30 minutes

Amino acid sequences for entries named in this document (tags omitted). Residues count along the entry.
UniProt P08311, 21-243 limits assumed: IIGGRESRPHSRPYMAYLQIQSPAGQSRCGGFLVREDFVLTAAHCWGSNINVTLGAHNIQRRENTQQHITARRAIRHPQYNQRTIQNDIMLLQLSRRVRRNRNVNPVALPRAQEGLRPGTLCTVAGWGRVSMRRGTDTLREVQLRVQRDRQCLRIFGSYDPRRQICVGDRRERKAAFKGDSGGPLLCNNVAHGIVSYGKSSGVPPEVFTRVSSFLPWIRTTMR

| Compound | IC50 [µM] |
| --- | --- |
| O=C(c1cc2ccccc2cc1C(=O)N1CCN(c2ccc(F)cc2)CC1)C(c1cccc2ccccc12)P(=O)(O)O (centres unmarked) | 0.52 |
| O=C(c1cc2ccccc2cc1C(=O)N1CCN(c2ccc(O)cc2)CC1)C(c1cccc2ccccc12)P(=O)(O)O (centres unmarked) | 0.18 |

Reference: patent US8703957B2 (Janssen Pharmaceutica NV, priority 2001, dated 2014)
